Test results taken from patent US20190015361A1, “POLYTHERAPY MODULATING CATHELICIDIN GENE EXPRTESSION MODULATION FOR THE TREATMENT OF ALZHEIMER'S DISEASE AND OTHER CONDITIONS” (Maxwell Biosciences, Inc., priority 2017, published 2019).

Key:
[1] = test system: SH-SY5Y cells; experiment: MTT viability, direct exposure of SH-SY5Y cells; type: cell-based, human; details: 30 μM, 72 h
[2] = test system: human microglia; experiment: MTT viability, direct exposure of human microglia; type: cell-based; details: 30 μM, 72 h
[3] = test system: SH-SY5Y cells; experiment: Microglia-mediated toxicity to differentiated SH-SY5Y cells (supernatant transfer, MTT); type: cell-based; details: microglia exposed 2 days to 30 μM peptide, supernatant transferred; after 3 days
[4] = test system: endothelial cells; details: cited from earlier work

## LL-37
[1]
  direct toxicity to SH-SY5Y cells (MTT): neither Aβ nor LL-37 peptide was toxic
[2]
  direct toxicity to human microglia alone (MTT): neither Aβ nor LL-37 peptide was toxic
[3]
  SH-SY5Y cell viability: 70%
[4]; Ciornei et al. 2006
  concentration cytotoxic to endothelial cells: 30000 ng/mL
[4]; Svensson et al. 2017
  concentration cytotoxic to endothelial cells lining blood vessels: above 13 μg/mL
